Molecular target: A1 adenosine receptor (Homo sapiens, UniProt P30542)
Assay: fus1-LacZ β-galactosidase assay in yeast expressing human A1 adenosine receptor
Details: NECA concentration of 10^−8 M

The chains behind the UniProt entries cited, without tags or fusion partners.
UniProt P30542, whole entry: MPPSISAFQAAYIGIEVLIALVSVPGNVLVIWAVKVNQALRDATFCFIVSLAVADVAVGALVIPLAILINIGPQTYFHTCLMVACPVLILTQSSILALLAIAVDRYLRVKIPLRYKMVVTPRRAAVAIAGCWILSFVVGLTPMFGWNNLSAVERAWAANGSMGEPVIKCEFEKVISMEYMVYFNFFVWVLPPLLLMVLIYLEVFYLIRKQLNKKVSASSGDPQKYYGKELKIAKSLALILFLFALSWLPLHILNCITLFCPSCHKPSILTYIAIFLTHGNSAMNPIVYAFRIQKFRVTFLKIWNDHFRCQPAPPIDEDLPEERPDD

SMILES: CCNC(=O)[C@H]1O[C@@H](n2cnc3c(N)ncnc32)[C@H](O)[C@@H]1O
- stimulation of β-galactosidase activity: approximately 2 fold

Reference: US6673802B2, “Compounds specific to adenosine A3 receptor and uses thereof” (OSI Pharmaceuticals, Inc., priority 2000, dated 2004)
